Measurements taken from ChEMBL document CHEMBL4229335 (Eur J Med Chem, 2018).

How the values were obtained:
HL-60 = assay: Antiproliferative activity against human HL60 cells after 72 hrs by MTT assay; assay type: functional, cell-based
Outline: (§1)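 MTT assay with 72 h exposure to graded concentrations in triplicate. MTT solution then DMSO were added, followed by 10 min at room temperature, with absorbance read at 490 nm. IC50 is reported as the mean of three independent experiments. 5-FU served as positive control.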

PC-3 = assay: Antiproliferative activity against human PC3 cells after 72 hrs by MTT assay; assay type: functional, cell-based; outline: as §1
[1] = Selectivity index, ratio of IC50 for human LO2 cells to IC50 for human Bel7402 cells
Bel7402/5-FU = assay: Antiproliferative activity against human Bel7402/5-FU cells after 72 hrs by MTT assay
Bel-7402 = assay: Antiproliferative activity against human Bel7402 cells after 72 hrs by MTT assay; assay type: functional, cell-based; outline: as §1
L02 = assay: Antiproliferative activity against human LO2 cells after 72 hrs by MTT assay; assay type: cell-based; outline: as §1

In the case of `O=C(O)c1ccc(N(CCCl)CCCl)cc1`, the pIC50 (HL-60) was 5.22, the pIC50 (PC-3) was under 4.10 and the Ratio IC50 [1] was 1.4. It also gave a pIC50 (Bel7402/5-FU) of under 4.00, a pIC50 (Bel-7402) of 4.62 and a pIC50 (L02) of 4.48.

pIC50: −log10 of the molar value.
